{"sequences": {"note": "Chains of the proteins cited; added tags and fusions are not shown.", "UniProt Q01959, whole entry": "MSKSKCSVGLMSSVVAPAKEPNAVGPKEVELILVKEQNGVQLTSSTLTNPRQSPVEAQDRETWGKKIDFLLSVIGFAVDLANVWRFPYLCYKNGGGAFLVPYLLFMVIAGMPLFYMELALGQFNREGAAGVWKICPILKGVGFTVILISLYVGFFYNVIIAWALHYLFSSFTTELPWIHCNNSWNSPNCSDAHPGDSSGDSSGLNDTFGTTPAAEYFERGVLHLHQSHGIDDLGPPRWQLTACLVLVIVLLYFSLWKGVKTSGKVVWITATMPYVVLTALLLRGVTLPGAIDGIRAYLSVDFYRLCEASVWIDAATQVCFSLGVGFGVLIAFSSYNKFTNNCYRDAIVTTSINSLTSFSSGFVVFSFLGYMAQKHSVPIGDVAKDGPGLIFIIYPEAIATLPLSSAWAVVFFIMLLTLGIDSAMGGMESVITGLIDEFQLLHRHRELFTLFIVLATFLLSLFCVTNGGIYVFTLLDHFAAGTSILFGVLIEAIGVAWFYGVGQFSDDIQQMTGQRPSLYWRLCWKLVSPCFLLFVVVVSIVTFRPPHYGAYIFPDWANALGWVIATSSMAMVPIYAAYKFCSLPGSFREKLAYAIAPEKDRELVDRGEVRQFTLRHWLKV"}, "source": "PubChem BioAssay AID449768", "about": "(Vanderbilt High Throughput Screening Facility, 2010)", "note": "This is a selection; strong and weak results do not stand in their true shares. Activity calls are given as the source filed them.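 The calls were made as follows: active = Z score or B-score, a plate-position-corrected score, falls beyond the plate's 99.7% confidence bounds, in either direction; inactive = both scores lie inside the 99.7% bounds.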", "data": [{"molecular_target": "Sodium-dependent dopamine transporter (Homo sapiens) (UniProt Q01959)", "experiment": "modulators of human DAT uptake with cocaine – cell-based, LLC-PK1 hDAT, [14C]-dopamine uptake, MLSMR, cocaine antagonist project, primary screen (AID 449768);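 also: scored against the spread of the other compound wells on the same plate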", "conditions": "LLC-PK1 hDAT cells, [14C]-dopamine uptake with cocaine IC80; at 10 µM; actives deviate in either direction", "values": [{"smiles": "CN1CCC(Nc2cccc(F)c2)CC1", "B-score": "inactive: 2.2"}, {"smiles": "N#CC1(Nc2ccccc2)CCN(CCc2ccccc2)CC1", "B-score": "inactive: -0.485"}, {"smiles": "O=C(NCC1(N2CCOCC2)CCCCC1)c1cc(=O)[nH]c2ccccc12", "B-score": "inactive: -0.000505"}, {"smiles": "COc1ccc(NC2CCN(CCc3ccccc3)CC2)c(OC)c1", "B-score": "inactive: 1.83"}, {"smiles": "O=C(NCC1(N2CCOCC2)CCCCC1)c1cc2ccccc2o1", "B-score": "inactive: 0.868"}, {"smiles": "O=C(OC1CN2CCC1CC2)C1c2ccccc2Oc2ccccc21", "note": "(stereo not given)", "B-score": "inactive: 1.31"}, {"smiles": "CCOc1ncccc1C(=O)NCC1(N2CCOCC2)CCCCC1", "B-score": "inactive: -0.00841"}, {"smiles": "CCC(CO)(C(=O)OC1CN2CCC1CC2)c1ccccc1", "note": "(stereo not given)", "B-score": "inactive: -0.833"}, {"smiles": "Fc1ccccc1NC1CCN(Cc2ccccc2)CC1", "B-score": "inactive: 0.652"}, {"smiles": "c1ccc(CN2CCC(Nc3ccccc3)CC2)cc1", "B-score": "inactive: -1.21"}]}]}
